Antibody variant affinities, Ab-14 heavy chain, assay B

Reference: Li et al. 2023, doi:10.1038/s41467-023-39022-2. File: FLAb, binding data.

Target: peptide PDVDLGDISGINAS, taken from heptad repeat 2 (HR2) of SARS-CoV-2 spike.

Parent: Ab-14, a human scFv built as VH, three GGGGS repeats, VL. Only the CDRs of the heavy chain vary.
VH: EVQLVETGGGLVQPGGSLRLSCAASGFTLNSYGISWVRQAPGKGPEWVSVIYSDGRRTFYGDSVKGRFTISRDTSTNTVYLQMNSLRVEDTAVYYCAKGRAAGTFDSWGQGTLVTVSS
VL: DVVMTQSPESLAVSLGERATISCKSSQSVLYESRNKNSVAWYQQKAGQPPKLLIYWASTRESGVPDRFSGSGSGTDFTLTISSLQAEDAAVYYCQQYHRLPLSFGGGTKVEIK

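The parent was found by panning a naive human phage display library on the peptide. The variants were designed computationally from a first round of random CDR variants and then made and measured. Their group label is 14H_En_Gibbs (En: ensemble of fine-tuned language models; Gibbs: Gibbs sampling). The assay is AlphaSeq: two haploid yeast populations carry antibody and antigen on their surface. Pairs that bind mate more often; barcode pairs of the diploids are counted by sequencing. The ratio of observed to expected reads was calibrated, replicate by replicate, on BCL2-family standards whose Kd was known from biolayer interferometry. Each pool was mated in six replicate cultures.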

The parent's heavy chain CDRs are GFTLNSYGIS, VIYSDGRRTFYGDSVK, GRAAGTFDS; each variant's own CDRs replace them letter for letter. Affinities are written as log10 Kd with Kd in nM; a lower number is a better binder. "n.d." means that the variant was in the library but no mating with the target was seen in that replicate; the authors take this as a sign of poor binding, and no number exists.

CDR-H1 | CDR-H2 | CDR-H3 | log10 Kd (nM) by replicate | signal with controls
GFQLNEYGIS | VIYADGIRREYADKVK | GGINASFDV | n.d. n.d. n.d. n.d. n.d. n.d. | 0/18
GFNIDEYGVS | VIYADGRRQYYADDVK | GHNLVMALV | n.d. n.d. n.d. n.d. n.d. n.d. | 0/18
GFLIEEYGIS | VIYADGVRKAYVNSFK | GEVGGTFTN | 0.91 0.76 1.95 0.90 1.25 0.92 | 1/18 (1.39)
GQDLEEYGIS | VIYADGMRAAYANNVK | GVKGINVTI | 2.59 1.57 1.12 1.17 1.91 1.52 | 0/18
GFDLDEQGIS | VIYADGVRCSYADKVK | GAGSGVIDM | n.d. n.d. n.d. n.d. n.d. n.d. | 0/18
GFSINEYGIS | VIYADGRRTFYGNAVK | GKAAVTFDQ | 1.87 n.d. n.d. 1.76 n.d. n.d. | 0/18
GFNIDEYGIS | VIYADGMRTAYSNAVK | GVVNGGTIS | n.d. n.d. n.d. n.d. n.d. n.d. | 0/18
GFNLDEYGIS | VIYADGMRTAFGDNVK | GTNFGDTVF | 0.02 0.30 -0.04 0.12 -0.43 0.36 | 0/18
GFDINEYGIS | VIYADGKKTAFANSVK | GESAGNFDD | n.d. n.d. 1.64 n.d. n.d. n.d. | 0/18
GFNIDEYGVS | VIYADGERTYYADKVK | GHNGVMALD | n.d. n.d. n.d. n.d. n.d. n.d. | 0/18
GFDLDEYGIS | VIYADGMRNAYTADVK | GGKSEDFFM | n.d. n.d. n.d. n.d. n.d. n.d. | 0/18
GFNIDEYGIS | VIYADGVRTAYADKVK | GFNWNLSVN | n.d. n.d. n.d. n.d. n.d. 3.25 | 2/18 (2.36)
GFDLNEYGIS | VIYADGMRTRYAQNFK | GYNSSDLTV | n.d. n.d. n.d. 2.83 n.d. n.d. | 2/18 (1.86)
GFDLEEWGIS | VIYADGRRTAYADNVK | GMSGADLMF | 1.88 n.d. n.d. n.d. n.d. n.d. | 0/18
GFDFKEYGIS | VIYADGKRQAYAQSVK | GGKNAFTDV | n.d. n.d. n.d. n.d. n.d. n.d. | 0/18
GKSLDEYGIS | VIYADGRSRAYADDVK | GNDGGGKDL | 0.65 n.d. n.d. n.d. n.d. n.d. | 0/18
GFNLDEIGIS | VIYADGMRTVYSQDVK | GQNVEFTVV | n.d. n.d. n.d. n.d. n.d. n.d. | 0/18
GKDMQEYGIS | VIYADGSRAAYGDNFK | GELAGTFDM | n.d. n.d. 0.85 1.80 n.d. 1.93 | 0/18
GFKIDEYGIS | VIYADGMRTQYADKVK | VGHDGYVLQ | n.d. n.d. n.d. n.d. n.d. n.d. | 0/18
GFNLLEYGIS | VIYADGMRQAYVEDVK | GTNGTSVFF | n.d. n.d. n.d. n.d. n.d. n.d. | 0/18
AFNIEDYGIS | VIYADGVRAMYVESVK | GGIAGTFDI | 1.60 1.36 0.75 1.64 1.41 0.78 | 1/18 (1.60)
GDSLNEYGIS | VIYADGFRAAYTDKVK | GVTGGNFSS | n.d. n.d. n.d. n.d. n.d. n.d. | 0/18
GFDLDEYGIS | VIYADGLRQVYQDNVK | GVGFTTFID | n.d. n.d. n.d. n.d. n.d. n.d. | 0/18
GFGLDEYGIS | VIFADGQRKYYADNVK | GHFGEDGVV | n.d. n.d. n.d. n.d. n.d. n.d. | 0/18
GFVLEEYGIS | VIYADGMRTAYAEDFK | GQTGGNFHH | n.d. n.d. n.d. n.d. n.d. n.d. | 0/18
GFQIDEYGIS | VIYADGMRTAYSDSFK | GVVTTMMVL | n.d. n.d. n.d. n.d. n.d. n.d. | 0/18
GFSLDEYGIS | VIYADGMRTAYTADVK | GVKSEDVVT | n.d. n.d. n.d. 1.49 n.d. n.d. | 0/18
GFEIEEYGIS | VIYADGQRSSYADNVK | GKVDTVVMY | n.d. n.d. n.d. n.d. n.d. n.d. | 0/18
GFQLDEYGIS | VIYADGMRTAYADSFK | GNKSVIIGI | n.d. n.d. n.d. n.d. n.d. n.d. | 0/18
GFGLSEYGIS | VIYADGVRASYADNVK | GFNFGQDIL | n.d. n.d. n.d. n.d. n.d. n.d. | 0/18
GFDIDEYGIS | VIYADGKRQALINAVK | GTLSGTFIA | n.d. n.d. n.d. n.d. n.d. n.d. | 0/18
FFKLEDYGIS | VIYADGRRTAYVDNFK | GEIAGTFDV | n.d. n.d. n.d. n.d. n.d. n.d. | 0/18
GYDIDEYGIS | VIYADGQRTSYVQNVK | GAGDITGLV | n.d. n.d. n.d. n.d. n.d. n.d. | 0/18
GFDLEEYGIS | VIYADGMRQVYAHSVK | GHYGLGKVG | n.d. n.d. n.d. n.d. n.d. n.d. | 0/18
GPNLEEYGIS | VIYADGIRTAYKDSVK | GDVAGIGKF | 0.26 0.82 0.84 0.41 0.90 0.36 | 1/18 (1.62)
GFDLDEYGIS | VIYADGSRQVYQDNVK | GVGFGTFTD | n.d. n.d. n.d. n.d. n.d. n.d. | 2/18 (2.67)
GFDIEEYGIS | VIYADGVRTMYADDVK | GINKTYSLT | n.d. n.d. n.d. n.d. n.d. n.d. | 0/18
GQGLDEYGIS | VIYADGMRNAYSNNVK | GQGGAVLGI | n.d. n.d. n.d. n.d. n.d. n.d. | 1/18 (1.83)
GMSLDEYGIS | VIYADGNRQVYIDKVK | GNYGGDFIE | 1.86 n.d. n.d. n.d. n.d. n.d. | 0/18
GINLEEYGVS | VIYADGRRTAYTNSVK | GGNSVTTGV | 0.50 0.98 0.56 0.97 1.20 0.43 | 0/18

The last 4 entries again:

| CDR-H1 | CDR-H2 | CDR-H3 | log10 Kd (nM) by replicate | signal with controls |
|---|---|---|---|---|
| GFDIEEYGIS | VIYADGVRTMYADDVK | GINKTYSLT | n.d. n.d. n.d. n.d. n.d. n.d. | 0/18 |
| GQGLDEYGIS | VIYADGMRNAYSNNVK | GQGGAVLGI | n.d. n.d. n.d. n.d. n.d. n.d. | 1/18 (1.83) |
| GMSLDEYGIS | VIYADGNRQVYIDKVK | GNYGGDFIE | 1.86 n.d. n.d. n.d. n.d. n.d. | 0/18 |
| GINLEEYGVS | VIYADGRRTAYTNSVK | GGNSVTTGV | 0.50 0.98 0.56 0.97 1.20 0.43 | 0/18 |

In the paper, a design with two or fewer of six values counts as a poor binder. Three control strains display no target. For all heavy chain designs, 1% of the pairings with them gave a signal, with a median of 2.08 and one signal in twenty below 0.84, so weak values seen in few replicates may be background. The control count says in how many pairings with the empty strains this scFv gave a signal, with their mean in brackets. Of ten entries with the parent sequence, four were seen in most replicates (averages 0.34 to 2.37), three in one and three in none, so single entries are noisy. Values of this round are not directly comparable with the first-round values of the same sequences.